Data on 29 compounds can be found in PubChem BioAssay (Tox21).

The structures appear in SMILES notation. Values joined by “and” are separate entries in the source; they are usually repeats but may differ in a detail not shown here. Equal entries are not always repeated. The entries are a selection whose mix differs from that of the whole data set. Results filed as inconclusive are left out. Where a call stands in place of a potency, no number is given. Active and inactive are the calls of the source. Calls come from the whole dose curve; as a rule, active = well fitted activation curve with a large enough effect in the repeat runs; inconclusive = weak or mixed curves; inactive = flat fitted curve, though single readings scatter.
Potency is the fitted concentration of half-maximal effect.

The test is described as follows: A CellTox Green Cytotoxicity Assay to monitor cytotoxicity in HepG2 cells - 16 hour (AID 1224876). Note: nearly all actives have a fitted effect of over 45% in size. Particulars: CellTox Green fluorescence; series mostly up to 76.8 µM. An excerpt: National Center for Advancing Translational Sciences [NCATS]
NIH Chemical Genomics Center [NCGC]
U.S. Environmental Protection Agency [EPA]
National Institutes of Environmental Health Sciences [NIEHS]
National Toxicology Program [NTP]
Cell-based models are critical for drug discovery. Determining the natural cytotoxic effects resulting from test compounds is an essential research activity. A CellTox Green Cytotoxicity Assay to monitor cytotoxicity in real time of continues cell culture during 40 hours of the compound treatment was used to screen Tox21 10K library compounds in HepG2 cells. CellTox Green Cytotoxicity Assay is a nonlytic, homogeneous, biofluorescent method to measure cytotoxicity in cell culture after experimental manipulation. The assay system uses a proprietary asymmetric cyanine dye that is excluded from viable cells but preferentially stains the dead cell's DNA. […] Viable cells produce no appreciable increases in fluorescence. Therefore, the fluorescence signal produced by the binding interaction with dead cell DNA is proportional to cytotoxicity.
The mixture of HepG2 cell suspension and reagents were dispensed at 600cells/6 ul/well in 1536-well tissue culture treated black solid bottom plates using a Multidrop dispenser. After the assay plates were incubated at a 37 C/5% CO2 incubator for 5 hours, 23 nL of compounds dissolved in DMSO, positive and negative controls was transferred to the assay plate by a pintool work station. The plates were incubated at 37 C for 40 hours. The fluorescence intensity were measured at 0h, 8h, 16h, 24h, 32h and 40h time points using ViewLux plate reader during compound treatment.
`O=P(Cl)(Oc1ccccc1)Oc1ccccc1`: the Potency result is “inactive”.

Consider `Cc1cc([N+](=O)[O-])c(O)c([N+](=O)[O-])c1`, for which the Potency entry was “inactive”.

With `CN(C(=O)Cc1ccc(Cl)c(Cl)c1)[C@H]1CC[C@@]2(CCCO2)C[C@@H]1N1CCCC1`, the Potency entry was “inactive”.

For `CN(C(=O)Cc1cccc2occc12)[C@H]1CC[C@@]2(CCCO2)C[C@@H]1N1CCCC1`, the Potency entry is “inactive”.

`CN(N=O)C(=N)N[N+](=O)[O-]`: the Potency entry was “inactive”.

In the case of `ClP(Cl)c1ccccc1`, the Potency result is “inactive”.

With `CCOP(=S)(CC)Sc1ccccc1` (centres undefined), the Potency entry is “inactive”.

For the compound `O=[p+]1oc2ccccc2c2ccccc21` (centres undefined), the Potency result was “inactive”.

In the case of `CCC(C)(OOC(C)(C)C)OOC(C)(C)C`, the cytotoxicity increase was inactive: -20.6% [at 15.8 µM].

As to `O=[As]c1ccccc1` (centres undefined), the Potency is active: 1.23 µM.

For `O=P(Cl)(Cl)c1ccccc1`, the Potency entry is “inactive”.

For `O=[N+]([O-])c1ccc(S(=O)(=O)O)c([N+](=O)[O-])c1`, the Potency entry was “inactive”.

In the case of `O=C1C2CC=CCC2C(=O)N1SC(Cl)(Cl)C(Cl)Cl` (centres undefined), the Potency is active: 44 µM and active: 7.76 µM.

Consider `O=[N+]([O-])c1ccc([N+](=O)[O-])cc1`, for which the Potency result is “inactive”.

As to `CCCCC(CC)CO[P+](=O)OCC(CC)CCCC` (centres undefined), the Potency entry is “inactive”.

Regarding `COP(=S)(Cl)OC`, the Potency entry is “inactive”.

Turning to `CCCCO[P+](=O)OCCCC`, the Potency entry was “inactive”.

As to `CC(C)CCCCCCCOP(OCCCCCCCC(C)C)Oc1ccccc1`, the Potency entry is “inactive”.

In the case of `CN(C(=O)Cc1ccccc1)[C@H]1CC[C@@]2(CCCO2)C[C@@H]1N1CCCC1`, the Potency entry is “inactive”.

As to `COC(=O)Cl`, the Potency result is “inactive”.

As to `NC(=O)Nc1ccc([As](=O)(O)O)cc1`, the Potency entry was “inactive”.

Turning to `O=[P+](Oc1ccccc1)Oc1ccccc1`, the Potency entry is “inactive”.

As to `O=C(Cl)Oc1ccccc1`, the Potency result was “inactive”.

Take `CCOC(=O)Cl`: the Potency result is “inactive”.

`Cc1cc([N+](=O)[O-])cc([N+](=O)[O-])c1O`: the Potency result was “inactive”.

Turning to `CCCCOP(OCCCC)OCCCC`, the Potency entry is “inactive”.

For `CCNC(C)Cc1ccc2c(c1)OCO2` (centres undefined), the Potency result was “inactive”.

For the compound `O=C(Cl)OCCOC(=O)Cl`, the Potency result is “inactive”.

Turning to `CC(C)OP(=S)(OC(C)C)SCCNS(=O)(=O)c1ccccc1`, the Potency result is “inactive”.
